# Tests used:
# Protein sequences, listed by entry. Tags and fused reporters are not part of them. Residues count along the entry.
# UniProt P00915, 2-261: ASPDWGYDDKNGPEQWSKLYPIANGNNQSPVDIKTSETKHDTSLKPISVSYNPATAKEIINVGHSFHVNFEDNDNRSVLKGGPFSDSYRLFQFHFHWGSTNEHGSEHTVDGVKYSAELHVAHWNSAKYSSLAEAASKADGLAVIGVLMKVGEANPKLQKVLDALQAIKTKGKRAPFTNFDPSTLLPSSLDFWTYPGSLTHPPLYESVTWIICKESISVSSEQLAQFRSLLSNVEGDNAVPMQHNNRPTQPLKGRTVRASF
# [1] = target: T1, hCA II (Homo sapiens, UniProt P00918); test: stopped-flow CO2 hydration; type: biochemical
# T1 construct: gene CA2; recombinant, obtained in-house as described earlier
# [2] = target: T2, hCA I (Homo sapiens, UniProt P00915); test: stopped-flow CO2 hydration; type: biochemical
# T2 construct: gene CA1; recombinant, obtained in-house as described earlier
smiles,measurement,setting,value
"O=c1ccc2ccc(O)cc2o1 [compound 3, 3]",Ki,[1],691 µM
same,Ki,[2],263 µM

# Source: PMC8741243 (Journal of Enzyme Inhibition and Medicinal Chemistry, 2022)
